Assays:
[1] = target: T1, Sodium-dependent noradrenaline transporter (Homo sapiens, UniProt P23975); assay: Inhibition of [3H]norepinephrine reuptake at human NET expressed in HEK cells; format: cell-based, HEK293
[2] = target: T1, Sodium-dependent noradrenaline transporter; assay: biochemical; format: cell-based, HEK293

Sequences of proteins named here, by UniProt entry; tags and fusion partners are left off.
UniProt P23975, whole entry: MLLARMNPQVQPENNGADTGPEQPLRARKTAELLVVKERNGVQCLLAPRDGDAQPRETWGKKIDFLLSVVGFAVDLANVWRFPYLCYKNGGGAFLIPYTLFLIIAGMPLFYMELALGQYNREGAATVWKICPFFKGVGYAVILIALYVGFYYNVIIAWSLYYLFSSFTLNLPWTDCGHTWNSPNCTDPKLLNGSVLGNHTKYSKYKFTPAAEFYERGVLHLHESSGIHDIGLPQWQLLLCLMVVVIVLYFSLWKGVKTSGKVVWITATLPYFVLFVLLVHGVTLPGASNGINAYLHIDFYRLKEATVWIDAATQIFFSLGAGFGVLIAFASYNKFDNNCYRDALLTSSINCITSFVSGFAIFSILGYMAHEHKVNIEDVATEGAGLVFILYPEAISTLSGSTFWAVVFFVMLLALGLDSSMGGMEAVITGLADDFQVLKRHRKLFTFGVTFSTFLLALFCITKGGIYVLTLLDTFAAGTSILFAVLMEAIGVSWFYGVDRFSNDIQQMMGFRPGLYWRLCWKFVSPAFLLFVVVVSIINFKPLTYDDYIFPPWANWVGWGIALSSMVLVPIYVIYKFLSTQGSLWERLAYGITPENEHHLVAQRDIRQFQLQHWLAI

COc1ccc(F)cc1C1CCC(CN)O1 (stereo not drawn)
IC50 [1]: > 10 µM

COc1ccc(F)cc1[C@H]1CC[C@H](CN)O1 (relative stereo)
IC50 [1]: > 10 µM

COc1ccc(F)cc1C[C@H]1CC[C@H](CN)O1 (relative stereo)
Ki [2]: 24.1 µM
